Measurements published in patent US7183251B1, “hCG therapy for the treatment of breast cancer” (Fox Chase Cancer Center, priority 1998, dated 2007).

Experiments:
[1] = system: DMBA-induced rat mammary carcinomas; test: Effect on advanced (palpable) tumor development after DMBA (Regimens 7-9); format: in vivo
Experimental: Evaluation of the therapeutic efficiency of r-hCG on mammary cancer. The tumoristatic and tumoricidal efficacy of r-hCG and u-hCG on early and advanced mammary cancer was tested in intact virgin rats that had received a single dose of DMBA when they were 45 days old (FIG. 4, Regimens 4–9). The effect on early tumor development was tested under Regimens 4, 5, and 6. It was evaluated by initiating r-hCG treatment 20 days after DMBA administration, when early lesions, such as intraductal proliferations (IDPs) and carcinomas in situ (CIS) are already present, but there are no palpable tumors as yet. The effect on advanced tumor development was evaluated by starting the hormonal treatment 60 days after DMBA administration, or when palpable tumors had reached at least 1 cm in maximal diameter (Regimens 7, 8, and 9). In both groups the hormone was administered for 40 days and final tumorigenic response was evaluated 20 weeks post-DMBA administration. The effect of the hormonal treatment on the rate of tumor growth, with special emphasis on tumor regression, absence of skin ulceration, and final tumor size and necrosis were evaluated at the time of assessment of the final tumorigenic response.
For Regimens 4–9, 300 animals were inoculated with a single ig dose of 8 mg DMBA/100 g bw when they were 45 days old. Tumorigenic response was evaluated by palpation of the right and left mammary cervical, thoracic, abdominal and inguinal areas and from ventral to dorsolateral extensions of the glands. All tumors were sequentially numbered in the order they had appeared, their location was recorded, and the rate of tumor growth was determined by measurement of tumor size with a Vernier caliper. All changes in the health status of the animals, rapid tumor growth or skin ulceration were recorded. Those animals in which the tumors were excessively large or became ulcerated were euthanized, irrespectively of the stage of the hormonal treatment, in compliance with IACUC regulations. Those animals that were euthanized before initiation or before the completion of the hormonal treatments were deleted from the statistical analysis of the final tumorigenic response.
Regimens 7–9 tested the effects of r-hCG and u-hCG on late (palpable) tumor development: Sixty days after DMBA inoculation, when the rats were 105 days old, animals allocated to Regimen 7 started receiving a daily ip injection of 100 IU/day r-hCG for 40 days. Under Regimens 8 and 9 the same number of animals received for 40 days 100 IU/day of u-hCG or 0.5 ml placebo, respectively. Tumorigenic response was evaluated by biweekly palpation. All tumors were sequentially numbered, their location was recorded, and the rate of tumor growth was determined by measurement of tumor size with a Vernier caliper. Final tumorigenic response was evaluated 20 weeks after administration of DMBA.
Evaluation of Final Tumorigenic Response. […] The tumors were rapidly dissected, measured in three dimensions, and serially sliced. Adjacent slices were:
The following criteria were utilized for evaluating the final tumorigenic response:
1. Rate of tumor growth, based on sequential measurement of the two largest diameters of tumors in live animals utilizing a Vernier Caliper and expressing the results in mm.
2. Final tumor size, based on measurement of the length, width and height of dissected tumors with a Vernier Caliper. Results were expressed in mm. A progressively smaller tumor size in successive measurements was indicative of tumor regression. Palpable tumors that had disappeared at the time of dissection were considered to be 100% regressed. The mammary tissue in which the tumor had been originally identified was fixed in 10% NBF for histopathological analysis.
5. Statistical Analysis. The significance of the differences in tumorigenic response among the groups was determined by Chi Square analysis and Student's T test.

[2] = system: neoplastic KS cells; conditions: cited from earlier work
[3] = r-hCG in primary breast cancer: clinical side effects; format: in vivo, human; conditions: 2-week r-hCG treatment, postmenopausal women
Excerpt: (§1) Hormonal Treatment: Dose and Schedule. The patients selected for this study received intramuscularly (IM) 10,000 units of the experimental drug, recombinant human chorionic gonadotropin on days 1, 3, 5, 7, 9, 11 and 13. The lyophilysate was reconstituted with normal physological saline immediately before injection in the gluteus. The controls were blinded and received IM injections of placebo. At each injection the patients were seen and informed about there concurrent medication and possible side effects. Treatment was double blind with 20 active sets and 5 controls. No dose modification was allowed. When side effects occurred or concommitant clinical problems, the treatment was interrupted as was the case in one patient. The efficacy of treatment was assessed by evaluating in the residual tumor resected by lumpectomy or mastectomy at the end of the two-week r-hCG treatment the same parameters evaluated in the initial core needle biopsies.

[4] = system: inhibin; test: r-hCG in primary breast cancer: immunostaining for inhibin; format: in vivo, human; conditions: 2-week r-hCG treatment
Excerpt: as §1, with “When side effects occurred or concommitant clinical problems, the treatment was interrupted as was the case in one patient.” left out
Surrogate Marker Analysis. The effects of r-hCG on the breast tumors was evaluated by using immunocytochemistry, performed in both core biopsies of the tumor and in residual tumor present in lumpectomy or mastectomy specimens. The following surrogate markers were evaluated using immunocytochemistry: Rate of cell proliferation, percentage of cells positive for estrogen (ER) and progesterone receptors (PgR) and immunoreactivity for inhibin. […] The study of lymph nodes of the same patients from which the primary tumors were studies was also analyzed by the same techniques. […]

[5] = 100 IU/day ip 40 days starting 60 days after DMBA, Regimens 7, 8

r-hCG: recombinant human chorionic gonadotropin, glycoprotein hormone composed of two non-covalently linked (α and β) subunits
No. An. With Tumors ([1]; 100 IU/day ip 40 days starting 60 days after DMBA, 20 weeks post-DMBA, Regimens 7, 8): 33 | No. Tumors/Animal (total animals at risk) [1, 5]: 3.9 | Percentage (animals with tumors) [1, 5]: 89.1 | Total No. Tumors [1, 5]: 147 | tumors per animal with tumors ([1]; Regimen 7): 4.4 | reduction of tumor burden ([1]; treatment initiated 60 days after DMBA, vs placebo): 40% | effect in the in vivo animal model or in vitro assay on KS cells [2]: Neither purified urinary nor purified recombinant hCG, subunits or fractions of hCG had any effect | clinical side effects [3]: neither produced clinical side effects | patients with significant increase in inhibin immunoreactivity in neoplastic cells [4]: nine out of the eighteen | primary breast lesions with overexpressed local production of inhibin [4]: 50%
